Assay results published in US20220340547A1, “INDOLE DERIVATIVE-CONTAINING INHIBITOR, PREPARATION METHOD THEREFOR AND APPLICATION THEREOF” (Shanghi Hansoh Biosoh Biomedical Co., Ltd., priority 2019, published 2022).

Amino acid sequences for entries named in this document (tags omitted). Residues count along the entry.
UniProt P00533, 25-1210 limits assumed: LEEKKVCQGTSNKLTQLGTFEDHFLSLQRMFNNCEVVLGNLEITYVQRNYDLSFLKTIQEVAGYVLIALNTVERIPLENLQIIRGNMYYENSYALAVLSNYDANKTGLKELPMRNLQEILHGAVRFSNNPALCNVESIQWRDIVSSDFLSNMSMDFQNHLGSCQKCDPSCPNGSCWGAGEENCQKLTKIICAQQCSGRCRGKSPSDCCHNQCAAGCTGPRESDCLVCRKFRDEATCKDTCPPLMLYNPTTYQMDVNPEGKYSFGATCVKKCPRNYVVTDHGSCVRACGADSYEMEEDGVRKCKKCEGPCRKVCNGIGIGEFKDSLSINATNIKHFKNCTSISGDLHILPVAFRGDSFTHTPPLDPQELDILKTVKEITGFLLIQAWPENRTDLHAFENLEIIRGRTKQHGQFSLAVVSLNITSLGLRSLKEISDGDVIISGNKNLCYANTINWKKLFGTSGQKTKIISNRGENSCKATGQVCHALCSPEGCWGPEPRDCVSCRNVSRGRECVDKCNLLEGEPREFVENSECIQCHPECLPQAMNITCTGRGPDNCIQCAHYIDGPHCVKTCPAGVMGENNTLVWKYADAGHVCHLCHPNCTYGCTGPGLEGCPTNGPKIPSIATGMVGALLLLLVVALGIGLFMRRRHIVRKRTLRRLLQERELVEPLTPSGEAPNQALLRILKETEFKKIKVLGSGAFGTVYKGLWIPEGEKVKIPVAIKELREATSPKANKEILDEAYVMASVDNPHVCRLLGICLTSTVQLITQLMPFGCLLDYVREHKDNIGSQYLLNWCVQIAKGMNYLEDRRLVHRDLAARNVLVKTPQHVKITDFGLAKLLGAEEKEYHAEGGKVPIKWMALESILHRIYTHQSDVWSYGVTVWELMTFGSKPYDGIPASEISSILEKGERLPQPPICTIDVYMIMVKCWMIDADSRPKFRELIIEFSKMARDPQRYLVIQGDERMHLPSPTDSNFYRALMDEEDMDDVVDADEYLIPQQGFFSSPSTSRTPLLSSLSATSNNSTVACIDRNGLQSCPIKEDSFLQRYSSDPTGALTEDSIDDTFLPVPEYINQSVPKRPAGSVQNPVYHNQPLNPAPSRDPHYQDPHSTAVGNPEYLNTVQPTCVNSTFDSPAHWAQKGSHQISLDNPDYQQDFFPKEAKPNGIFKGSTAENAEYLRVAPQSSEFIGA

Molecular target: EGFR WT (Homo sapiens, UniProt P00533)
Assay: TR-FRET inhibition of kinase activity of wild type EGFR
Type: biochemical
Settings: read-out: EGFR WT IC50

C=CC(=O)Nc1cc(Nc2ncc(C#N)c(-c3cn(C4CC4)c4ccccc34)n2)c(OC)nc1N(C)CCN(C)C
IC50: 1.32 µM
